{"source": "ChEMBL document CHEMBL4422663", "about": "“Suppression of Tumor Growth and Metastases by Targeted Intervention in Urokinase Activity with Cyclic Peptides” (J Med Chem, 2019)", "biological_target": "T1, Suppressor of tumorigenicity 14 protein (Homo sapiens, UniProt Q9Y5Y6)", "T1 sequence (Q9Y5Y6 whole entry)": "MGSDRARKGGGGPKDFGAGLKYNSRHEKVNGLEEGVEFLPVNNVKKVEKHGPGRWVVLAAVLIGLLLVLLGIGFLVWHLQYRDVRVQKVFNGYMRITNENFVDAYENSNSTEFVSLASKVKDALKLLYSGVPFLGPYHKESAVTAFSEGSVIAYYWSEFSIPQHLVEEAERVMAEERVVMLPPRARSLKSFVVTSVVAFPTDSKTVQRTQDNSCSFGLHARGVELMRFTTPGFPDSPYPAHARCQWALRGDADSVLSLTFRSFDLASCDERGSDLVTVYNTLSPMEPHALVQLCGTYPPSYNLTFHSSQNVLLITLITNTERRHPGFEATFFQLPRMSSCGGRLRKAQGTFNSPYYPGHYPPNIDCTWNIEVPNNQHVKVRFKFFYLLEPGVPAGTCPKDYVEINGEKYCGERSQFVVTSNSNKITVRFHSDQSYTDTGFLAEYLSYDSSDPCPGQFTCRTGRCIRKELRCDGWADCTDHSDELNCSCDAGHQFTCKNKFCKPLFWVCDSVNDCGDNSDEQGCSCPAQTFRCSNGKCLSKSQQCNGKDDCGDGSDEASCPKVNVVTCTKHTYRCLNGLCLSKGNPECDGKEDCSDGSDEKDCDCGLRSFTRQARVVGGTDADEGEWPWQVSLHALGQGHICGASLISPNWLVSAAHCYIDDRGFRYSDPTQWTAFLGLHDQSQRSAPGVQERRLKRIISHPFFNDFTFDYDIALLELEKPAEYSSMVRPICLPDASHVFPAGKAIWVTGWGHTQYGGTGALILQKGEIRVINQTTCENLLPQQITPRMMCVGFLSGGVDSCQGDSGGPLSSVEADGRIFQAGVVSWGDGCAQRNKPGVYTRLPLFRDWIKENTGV", "experiment": "Inhibition of matriptase (unknown origin)", "data": [{"smiles": "CCOC(=O)N1CCN(C(=O)[C@H](Cc2cccc(C(=N)N)c2)NS(=O)(=O)c2c(C(C)C)cc(C(C)C)cc2C(C)C)CC1", "values": [{"measurement": "Ki", "value": 370, "unit": "nM"}]}]}
